Counter-ions that a name gives are not always drawn.
Target: GABA-AT (Sus scrofa, UniProt P80147)
Assay: Reversible inhibition of GABA-AT (coupled assay with SSDH)
Type: biochemical, pig
Design: was purified from pig brain following a procedure described previously; from tissue; host or cells: pig brain
Settings: Ki = IC50/(1 + [S]/Km); 9-point assay
Experimental: All reagents for enzyme purification and assays were purchased from Sigma-Aldrich (St. Louis, MO, USA). […] All the enzyme assays for the inactivation, partition ratio, and dialysis experiment were recorded on a Synergy H1 hybrid multimode microplate reader (Biotek, USA) with transparent 96-well plates.
96-well plates were loaded with 80 μL of an assay mixture containing excess SSDH, 1 mM NADP^+, 11.1 mM GABA, and 10 μL of various concentrations of the tested compounds in 50 mM potassium pyrophosphate buffer (pH 8.5, 5 mM α-ketoglutarate, and 5 mM β-mercaptoethanol). […] The microplate was shaken at 25° C. for 1 min, and the remaining enzyme activity was determined by observing the change in absorbance at 340 nm at 25° C. based on the conversion of NADP^+ to NADPH. […] Subsequent Ki values were determined using equation (2) All assays were performed in duplicate.

Protein sequences, listed by entry. Tags and fused reporters are not part of them. Residues count along the entry.
UniProt P80147, 29-500: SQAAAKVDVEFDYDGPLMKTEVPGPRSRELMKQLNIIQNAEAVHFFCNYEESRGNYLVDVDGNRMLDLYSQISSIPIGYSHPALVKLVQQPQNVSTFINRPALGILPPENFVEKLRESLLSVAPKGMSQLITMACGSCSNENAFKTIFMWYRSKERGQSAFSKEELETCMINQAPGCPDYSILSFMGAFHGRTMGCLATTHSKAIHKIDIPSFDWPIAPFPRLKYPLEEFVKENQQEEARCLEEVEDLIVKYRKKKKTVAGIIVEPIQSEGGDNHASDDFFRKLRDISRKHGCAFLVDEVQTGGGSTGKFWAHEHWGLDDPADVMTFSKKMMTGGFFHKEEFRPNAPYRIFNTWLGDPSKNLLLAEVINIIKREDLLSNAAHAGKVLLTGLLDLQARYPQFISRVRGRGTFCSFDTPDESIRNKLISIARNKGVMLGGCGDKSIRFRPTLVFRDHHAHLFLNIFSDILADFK

SMILES: N[C@H]1C[C@@H](C(=O)O)CC1(F)F [Compound 4, (1R,4S)-4-Amino-3,3-difluorocyclopentanecarboxylic acid hydrochloric acid salt, reference compound]
- Ki: 90 µM

From patent US20240174596A1 (Northwestern University, priority 2021, published 2024)
